From PubChem BioAssay AID651630 (Sanford-Burnham Center for Chemical Genomics, 2012) come the findings set out here.

Assay [1] deals with DAPI. Kind of assay: triacylglycerol accumulation inhibitor potency, dose response, cell-based, panel, Nile Red and DAPI fluorescence, H9c2 (AID 651630).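 Further: cells exposed to compound overnight before fixation and staining.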 The conditions noted are these: H9c2 cells, DAPI nuclear fluorescence (cytotoxicity counter-readout), oleic acid.
In assay [2] the test system is TAG. Described as above. The conditions noted are these: H9c2 cells, Nile Red TAG fluorescence, oleic acid.

As usually defined, the IC50 is the point on the concentration scale where inhibition reaches its midpoint. In the case of `CC(=O)NC(SC(=S)N(CC(C)C)CC(C)C)C(Cl)(Cl)Cl` (stereo not given), the IC50 cytotoxicity (DAPI nuclear signal decrease) in assay [1] (run 1) and in assay [1] (run 2) was 25000 nM each time. For the same compound, the half-maximal inhibitory concentration (IC50) was 1580 nM in assay [2] (mean of runs), 2380 nM in assay [2] (run 1) and 780 nM in assay [2] (run 2).

For the compound `CCC(C)N(CC(C)C)C(=S)SC(NC(C)=O)C(Cl)(Cl)Cl` (stereo not given), the IC50 cytotoxicity (DAPI nuclear signal decrease) in assay [1] (run 1) and in assay [1] (run 2) was 25000 nM throughout. Further, the IC50 in assay [2] (mean of runs) was less than 780 nM; in assay [2] (run 1) it was 780 nM; in assay [2] (run 2) it was 780 nM.
